Consider 1 compound from publication PMC3185582 (Viruses, 2010).

For data set [1] the following is noted: in vivo, po; cited from earlier work.

As for `O=C(NN1C(=O)[C@@H]2[C@@H]3C=C[C@@H]([C@H]4C[C@@H]34)[C@@H]2C1=O)c1ccc(C(F)(F)F)cc1` [ST-246, Tecovirimat], in data set [1], the “mean times to maximum concentration” value is 3 to 4 h. Besides, where the note is “28 day study”, the “exposure at the end of the study relative to Day 1” value is given as 25% of the Day 1 exposure to equivalent exposure. Moreover, under “three month study”, the “exposure at the last time point relative to first day” value is “nearly double”.
